Earlier results, collected in patent US20260224567A1, “METHODS FOR TREATING NEUROBLASTOMA WITH A DUAL ANAPLASTIC LYMPHOMA KINASE AND FOCAL ADHESION KINASE INHIBITOR” (The Regents of the University of Michigan, priority 2023, published 2026).

Sequences of proteins named here, by UniProt entry; tags and fusion partners are left off.
UniProt Q05397, whole entry: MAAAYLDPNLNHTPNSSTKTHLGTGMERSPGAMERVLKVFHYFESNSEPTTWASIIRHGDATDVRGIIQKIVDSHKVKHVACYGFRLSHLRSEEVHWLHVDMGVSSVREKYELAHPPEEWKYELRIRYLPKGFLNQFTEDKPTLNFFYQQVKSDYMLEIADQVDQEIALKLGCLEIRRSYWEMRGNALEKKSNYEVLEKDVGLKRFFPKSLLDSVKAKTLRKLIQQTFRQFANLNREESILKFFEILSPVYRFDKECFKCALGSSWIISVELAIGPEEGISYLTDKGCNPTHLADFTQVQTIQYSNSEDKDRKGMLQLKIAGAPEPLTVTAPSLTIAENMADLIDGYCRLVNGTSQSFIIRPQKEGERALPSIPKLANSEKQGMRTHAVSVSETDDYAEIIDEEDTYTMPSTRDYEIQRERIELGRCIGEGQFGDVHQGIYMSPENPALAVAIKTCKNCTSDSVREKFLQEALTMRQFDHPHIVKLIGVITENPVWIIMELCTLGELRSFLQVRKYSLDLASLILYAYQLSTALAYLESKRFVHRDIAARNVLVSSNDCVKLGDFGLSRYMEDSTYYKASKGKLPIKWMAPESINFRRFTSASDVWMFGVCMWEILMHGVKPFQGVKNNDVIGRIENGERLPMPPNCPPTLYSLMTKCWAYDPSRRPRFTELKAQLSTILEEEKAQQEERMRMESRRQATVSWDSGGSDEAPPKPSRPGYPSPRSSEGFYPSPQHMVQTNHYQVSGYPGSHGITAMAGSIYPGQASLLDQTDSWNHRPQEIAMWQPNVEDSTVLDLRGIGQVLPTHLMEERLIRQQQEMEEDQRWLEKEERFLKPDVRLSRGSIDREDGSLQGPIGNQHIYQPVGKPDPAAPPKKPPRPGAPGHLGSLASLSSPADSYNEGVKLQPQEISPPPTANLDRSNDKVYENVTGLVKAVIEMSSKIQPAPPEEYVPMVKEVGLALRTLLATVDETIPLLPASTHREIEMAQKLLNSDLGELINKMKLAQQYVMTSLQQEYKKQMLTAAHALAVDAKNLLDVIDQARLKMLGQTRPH

Molecular target: FAK (Homo sapiens, UniProt Q05397)
Settings: Ott et al., J Med Chem 2016; cited from earlier work

CNC(=O)c1ccccc1Nc1nc(Nc2ccc3c(c2OC)CCC[C@H](N2CCN(CCO)CC2)C3)ncc1Cl [ESK440, (S)-2-((5-chloro-2-((6-(4-(2-hydroxyethyl)piperazin-1-yl)-1-methoxy-6,7,8,9-tetrahydro-5H-benzo[7]annulen-2-yl)amino)pyrimidin-4-yl)amino)-N-methylbenzamide]
inhibition of enzymatic and cellular biochemical activity of FAK: low nanomolar concentrations
